Screening data as filed in PubChem.
Rows were chosen to be rich in hits. Some 1.4% of all compounds tested hit in one or more screens of this group.
CCT chaperon mod: cytosolic chaperonin activity modulation; 360,000 compounds, 0.3% hits; activity change, % (concentration not given with the values), hits read low; AID 651819; purified chaperonin ATPase assay, HTRF ADP detection, 30 min; in the data active means activity change below about -30%
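TRiC (40 or 20 nM final, by batch activity) in 30 mM Tris pH 7.4, 100 mM KCl, 5 mM MgCl2, 1 mM DTT was treated with compound at 76 uM single dose, then 10 uM ATP, 30 min at 37 °C. ADP was read by HTRF Transcreener.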
Rango dissoc inh: inhibition of RanGTP-driven Rango-importin beta dissociation. AID 540253. 340,000 compounds, 0.071% hits. Potency, µM (top dose mostly 46.1 µM). O95149+P62826. Biochemical FRET Rango-importin beta, RanGTP-induced dissociation; further: nearly all actives have a fitted effect of over 45% in size
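Recombinant Rango FRET biosensor (EYFP–snurportin 1 IBB–cerulean CFP10) at 0.1 uM premixed with 0.25 uM importin beta in PBS, 1 mM DTT, 0.02% Tween-20, 0.1% BSA. Compound added 5 min; RanGTP-RCC1 (0.6 uM Ran, 2 mM GTP, 0.2 uM RCC1) then triggers release, read at 45 min.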
MmCpn inh: M. maripaludis TRiC chaperonin inhibition | purified Mm-Cpn ATPase, ADP Transcreener TR-FRET | Potency, µM (doses to about 76.9 µM), most hits filed as inhibitors | 330,000 compounds, 0.031% hits | AID 504842; active means well fitted inhibition curve with a large enough effect; inconclusive means small, poorly fitted or top-dose-only effect; further: nearly all actives have a fitted effect of over 80% in size
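Compound-treated chaperonin, 25 nM final, turns over 10 uM ATP at 37°C for 30 min following a 10 min preincubation; ADP generated competes with ADP-d2 for Eu-cryptate antibody, lowering FRET.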
KCNH2 WT inh: inhibitors of human wildtype KCNH2 potassium channel; activity change, % at 1.84 µM; U2OS, BacMam KCNH2, thallium flux FluxOr; active compounds read low; Q12809; 340,000 compounds, 0.37% hits;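 active means maximum activity change below -70%; inconclusive means maximum activity change between -70% and -50%; inactive means maximum activity change above -50%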
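U2OS cells were transduced with wild-type KCNH2 virus (2.03 x 10^8 / mL) for 4 h at room temperature, then cultured overnight at 37 C. Thallium flux was read with FluxOr dye. Rate constants were normalized to DMSO controls.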
Rango-impB inh: inhibitors of Rango-importin beta complex formation; Q14974; Rango CFP/YFP FRET sensor + importin beta, 45 min; Potency, µM (series often up to 92.2 µM); 340,000 compounds, 0.031% hits; AID 540263; further: nearly all actives have a fitted effect of over 15% in size
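FRET biosensor Rango (snurportin 1 IBB between N-terminal EYFP and C-terminal Cerulean), 50 nM in PBS/1 mM DTT/0.02% Tween-20/0.1% BSA, preincubated 5 min RT with compound; 0.125 microM importin beta added, 45 min RT, CFP/YFP FRET ratio read.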
KCNH2 3.1 block: KCNH2 3.1 (human) potassium channel inhibition; U2OS KCNH2 3.1, thallium flux FluxOr; active compounds read low; activity change, % (tested at about 1.8 µM); 340,000 compounds, 0.95% hits; AID 720553;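 active means maximum activity change below -70%; inconclusive means maximum activity change from -70% to -50%; inactive means maximum activity change above -50%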;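 further: thallium influx rate constant from kinetic fluorescence after stimulation buffer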
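Steps: virus added to U2OS suspension (4 h, RT, dark); medium with 10% FBS added, cells plated, 37 C overnight; FluxOr/Red40 loading buffer 45 min RT; stimulation buffer, 2 min kinetic read; rate constant normalized.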
Of the large screens only hits and unclear results are named; the others gave an inactive call. Unless noted, the call rests on the fitted dose curve.

CC(C)Nc1ccc(Nc2ccnc3cc4ccccc4cc23)cc1	KCNH2 3.1 block -91
Cc1cc(C(=O)N/N=C/c2ccc([N+](=O)[O-])o2)c(C)o1	KCNH2 3.1 block -92
C=CCOc1ccc(C2=NOC(C(=O)Nc3ccc4c(c3)OCCO4)C2)cc1OC (centres undefined)	KCNH2 WT inh -189
Cc1ccc([C@H]2C[C@@H](n3cc(C4CC4)nn3)[C@H](O)CN2CC2CCCCC2)cc1	CCT chaperon mod -74 (no result: Rango dissoc inh, MmCpn inh, Rango-impB inh)
CCCNc1nc(OCC(F)(F)F)nc(OCC(F)(F)F)n1	none
CN1CCN(c2nc(NCCOC34CC5CC(CC(C5)C3)C4)nc(OCC(F)(F)F)n2)CC1	KCNH2 3.1 block -71
CCN(C(=O)c1cnc(NC(C)C)cc1C(F)(F)F)c1ccc(Cl)cc1Cl	none
COC(=O)C1=CN(c2ccc(F)cc2)C=C(C(=O)OC)C1c1ccc([N+](=O)[O-])cc1	KCNH2 3.1 block inconclusive
COC(=O)C1=CN(c2ccc(OC)cc2)C=C(C(=O)OC)C1c1ccc([N+](=O)[O-])cc1	KCNH2 3.1 block -73
O=C(NNC1CC(=O)N(c2ccc(Br)cc2)C1=O)c1cccnc1 (centres undefined)	none
COc1ccc(N2C(=O)CC(NNC(=O)c3cccnc3)C2=O)cc1 (centres undefined)	CCT chaperon mod -43
C=CCNC(=O)/C(C#N)=C/c1c(N2CCN(c3ccc(OC)cc3)CC2)nc2c(C)cccn2c1=O	none
Cc1ccc(S(=O)(=O)N/N=C/c2ccc(OCC(=O)N3CCOCC3)cc2)cc1	KCNH2 3.1 block -72
Cc1cc(S(=O)(=O)NC2CCCCC2)ccc1OCC(=O)N1CCOCC1	CCT chaperon mod -67
O=C(COc1ccc(/C=N/NS(=O)(=O)c2ccccc2)cc1)N1CCOCC1	none
O=C(NCc1cccc(C(F)(F)F)c1)c1[nH]c(C(F)(F)F)nc1-c1ccccc1	none (no result: Rango dissoc inh, MmCpn inh, KCNH2 WT inh, Rango-impB inh, KCNH2 3.1 block)
NC(=O)C1CCN(c2nc(-c3cccc4sc5ccccc5c34)cs2)CC1	none (no result: CCT chaperon mod, Rango dissoc inh, KCNH2 WT inh, Rango-impB inh, KCNH2 3.1 block)
COC(=O)c1sc(S(=O)(=O)N2CCC(C)CC2)c(C(=O)OC)c1C	none
COC(=O)c1sc(S(=O)(=O)N2CCCCC2)c(C(=O)OC)c1C	KCNH2 3.1 block -187
COc1ccccc1N1CCN(C(c2cc3ccc(C)cc3[nH]c2=O)c2nnnn2C2CCCC2)CC1 (centres undefined)	Rango-impB inh 58µM
O=C(CO/N=C/c1ccc(OC(F)F)cc1)NCc1cccs1	Rango-impB inh inconclusive, KCNH2 3.1 block -80
O=C(COC(=O)/C=C/c1ccc(OC(F)F)cc1)NCc1cccs1	none
COCCN1C(=S)N[C@@H](c2ccccc2)C(C(=O)OC)=C1C	none (no result: CCT chaperon mod, Rango dissoc inh, KCNH2 WT inh, Rango-impB inh, KCNH2 3.1 block)
CCCCN(C(=O)c1ccc(-c2ccc(Cl)cc2)o1)c1c(N)n(CCCC)c(=O)[nH]c1=O	KCNH2 WT inh -202, Rango-impB inh inconclusive
CCCCN(C(=O)c1cc(CN2C(=O)c3ccccc3C2=O)ccc1OC)c1c(N)n(CC(C)C)c(=O)[nH]c1=O	CCT chaperon mod -84 (no result: MmCpn inh)
COc1ccc(CCCC(=O)N/N=C/c2ccccc2OC)cc1	none
CC(C)CC(NC(=O)CC12CC3CC(CC(C3)C1)C2)C(=O)NC1=NCCS1 (centres undefined)	CCT chaperon mod -98, Rango-impB inh inconclusive
CC(C)C(NC(=O)C12CC3CC(CC(C3)C1)C2)C(=O)NC1=NCCS1 (centres undefined)	none (no result: CCT chaperon mod, Rango dissoc inh, KCNH2 WT inh, Rango-impB inh, KCNH2 3.1 block)
Cc1ccc(Nc2cc(C)nc(-c3ccccc3)n2)cc1	KCNH2 3.1 block -77
Cc1ccc(/C=N/Nc2cc(C)nc(NCc3ccccc3)n2)cc1	KCNH2 3.1 block -80
Cc1ccc(Nc2cc(C)nc(-c3ccccc3O)n2)cc1	none
Cc1cc(N/N=C/c2ccc(N(C)C)cc2)nc(NCc2ccccc2)n1	Rango dissoc inh inconclusive, Rango-impB inh inconclusive
Cc1cc(Nc2ccc(Cl)cc2)nc(NCc2ccccc2)n1	KCNH2 3.1 block -78
Cc1cc(N/N=C/c2ccc(F)cc2)nc(NCc2ccccc2)n1	KCNH2 3.1 block -100
CCN1C(=O)C(CC(=O)NCCc2ccccc2)N(NC(=O)c2ccc(Br)cc2)C1=S (centres undefined)	none (no result: Rango dissoc inh, MmCpn inh, Rango-impB inh)
OCC[C@@H]1C[C@H](O)[C@@H](O)[C@]2(OCc3ccccc32)O1	none
COc1ccc([N+](=O)[O-])cc1NC(=O)COC(C)=O	KCNH2 3.1 block -123
CCCC(=O)OCC(=O)Nc1cc([N+](=O)[O-])ccc1OC	none
COc1ccccc1NC(=O)Cn1cc(C#N)c2ccccc21	KCNH2 WT inh -254
COc1ccccc1NC(=O)CSCc1ccc([N+](=O)[O-])cc1	KCNH2 WT inh -149, KCNH2 3.1 block -199
COc1ccc2cc(CN(CC3COCCO3)S(=O)(=O)c3ccc(Cl)cc3)c(=O)[nH]c2c1 (centres undefined)	none
COc1ccc(C(NC(=O)c2cccnc2)c2cc(Cl)c3cccnc3c2O)cc1OC (centres undefined)	Rango dissoc inh inconclusive, Rango-impB inh 37µM
O=C(CCCn1cc([N+](=O)[O-])cn1)Nc1cccnc1	none
Cc1cccc(N2CCN(C(=O)CCS(=O)(=O)c3ccc(Br)cc3)CC2C)c1 (centres undefined)	none
CC(=O)N1CCCc2cc(S(=O)(=O)CCC(=O)N3CCN(c4cccc(C)c4)C(C)C3)ccc21 (centres undefined)	KCNH2 3.1 block -93
Cc1cccc(-c2sc(Nc3ccccc3)n[n+]2-c2ccc(F)cc2)c1	KCNH2 3.1 block -92
Oc1ccc2ccccc2c1-c1sc(Nc2ccccc2)n[n+]1-c1ccc(F)cc1	Rango-impB inh 52µM
Oc1ccc(-c2sc(Nc3ccccc3)n[n+]2-c2ccc(F)cc2)cc1	MmCpn inh 40µM
Cc1cccc(NC(=O)Nc2c(C)n(C)n(-c3ccccc3)c2=O)c1	KCNH2 WT inh -102
O=C(Nc1ccccc1F)c1ccc(O)c2ncccc12	none (no result: CCT chaperon mod, Rango dissoc inh, KCNH2 WT inh, Rango-impB inh, KCNH2 3.1 block)
COc1ccc(-c2cc(C(F)(F)F)c(C#N)c(SCC(=O)Nc3ccccc3C#N)n2)cc1	CCT chaperon mod -45, Rango dissoc inh inconclusive, Rango-impB inh inconclusive
CC(=O)c1ccc(Cc2ccc(C(C)=O)s2)s1	none (no result: Rango dissoc inh, MmCpn inh, Rango-impB inh)
O=c1c2ccccc2oc2cc(-c3ccc4cc[nH]c4c3)ccc12	CCT chaperon mod -44, Rango dissoc inh inconclusive
C=CCOC(=O)C1=C(C)Nc2nc3ccccc3n2C1c1ccncc1 (centres undefined)	none
CCCCCCCNC(=O)C1(CC2CC(c3cccc(Br)c3)=NO2)CCN(C(=O)CCCCCBr)CC1 (centres undefined)	KCNH2 WT inh -123, KCNH2 3.1 block -96
CC(C)c1ccc(NC(=O)CN2C(=O)NC3(CCCC3)C2=O)cc1	none
